These results are taken from PubChem BioAssay AID504845 (National Center for Advancing Translational Sciences (NCATS), 2011).

Chains of the proteins cited; added tags and fusions are not shown.
UniProt P49798, whole entry: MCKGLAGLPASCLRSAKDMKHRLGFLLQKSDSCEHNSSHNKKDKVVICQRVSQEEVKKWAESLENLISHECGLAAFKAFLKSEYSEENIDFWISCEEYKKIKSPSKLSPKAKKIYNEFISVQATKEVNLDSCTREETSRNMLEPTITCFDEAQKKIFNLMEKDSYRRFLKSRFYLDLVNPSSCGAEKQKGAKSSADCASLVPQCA

Each structure is given as a SMILES string. Only a part is listed here, and it is no random draw. Results filed as inconclusive are left out. Some salts or complexes appear as unconnected parts, following the source record. Calls of active or inactive are those of the source. Calls follow the shape of the dose curve; as a rule, active = well fitted inhibition curve with a large enough effect; inconclusive = small, poorly fitted or top-dose-only effect; inactive = no such curve, though single readings can be large or run the other way.
% is scaled to controls: 0 for no effect and ±100 for the full control effect.

This assay deals with Regulator of G-protein signaling 4 (Homo sapiens) (UniProt P49798). The assay is described as follows: Inhibitors of Regulator of G Protein Signaling (RGS) 4: qHTS. Also: nearly all actives have a fitted effect of over 75% in size. The conditions noted are these: Transcreener GDP fluorescence polarization, RGS4-accelerated GTP hydrolysis; at 114 µM (top of the series) unless noted. From the text:
G-protein-coupled receptors (GPCRs) are well-established targets for drug discovery and development. Members of the "regulator of G-protein signaling" (RGS)-protein superfamily have recently emerged as critical modulators of specific GPCR signaling pathways. […] Combining specific RGS domain inhibitors with existing GPCR agonists should potentiate cellular responses and could also increase the specificity of action of existing therapeutics. Small molecule modulators of RGS domain activity should also have clinical utility in inhibiting or potentiating the actions of endogenous GPCR agonists. In particular, the diversity of RGS proteins with highly localized and dynamically regulated distributions in the human brain makes this family of proteins attractive targets for pharmacotherapy of central nervous system (CNS) disorders such as Parkinson's disease, schizophrenia, and anxiety.
This assay was used to screen the NIH Molecular Libraries Small Molecule Repository (MLSMR) in order to identify a small molecule that inhibits RGS4.
NIH Chemical Genomics Center [NCGC]
NIH Molecular Libraries Probe Centers Network [MLPCN]
Assay Submitter (PI): David Siderovski, University of North Carolina Chapel Hill (School of Medicine)
Two microliters of 500nM (2x working concentration) is dispensed into black medium-binding solid-bottom Kalypsys plates. Then with the Kalypsys pintool 23nl of control and compounds are transferred; the control compound is […] CCG-4986 (working concentration). After a 10 minute incubation at room temperature 2ul of antibody is added with the Kalypsys dispenser; (-)RGS4/Transcreener GDP solution in columns 3 and 4 which consisted of 10nM (2x working concentration) Alexa633, 20uM GTP, and 20 ug/ml GDP antibody and (+)RGS4/Transcreener GDP solution in columns 1,2, and 5 to 48 which consists of 900nM RGS4 (2x working concentration), 10nM Alexa633, 20 ug/ml GDP antibody. The plate is centrifuged at 1000 RPM for 15 seconds to remove any possible bubbles and then incubated for 5 minutes at ambient room temperature. An initial fluorescent polarization read (620 nm/688 nm) is performed on the Envision before the plate is incubated for 90 minutes at 30 deg C at a relative humidity of 80%. The plate is once more centrifuged at 1000 RPM for 15 seconds and another Envision fluorescent polarization (620 nm/688 nm) read is carried out.
(In general: Quantitative high-throughput screening tests each substance at several concentrations.)
Take `CCC(CO)(C(=O)OC1CN2CCC1CC2)c1ccccc1` (configuration not stated): the activity change, negative = inhibition is inactive: 11.7%.
The same measure for `COc1cc(OC)cc(C(=O)NCC2(N3CCOCC3)CCCCC2)c1`: inactive: -22.8%; for `COc1cc(C(=O)NCC2(N3CCOCC3)CCCCC2)cc(OC)c1OC`: inactive: 16.1%.
The value for `COc1cccc(C(=O)N(c2cc(C)cc(C)c2)C2CCN(C(=O)OC(C)(C)C)CC2)c1` was inactive: 2.69%; that for `CN1CCC(Nc2ccc(Cl)cc2)CC1` was inactive: 23.3%; that for `CCOc1ncccc1C(=O)NCC1(N2CCOCC2)CCCCC1` was inactive: -14.6%.
The same measure for `CN1CCC(Nc2ccc(F)c(Cl)c2)CC1`: inactive: -7.41%.
In the case of `CCCOc1ccc(C(=O)NCC2(N(C)C)CCCCC2)cc1`, the activity change, negative = inhibition is inactive: -14.1%.
The value for `CC(C)(C)OC(=O)N1CCC(Nc2ccccc2)CC1` was inactive: 3.73%; that for `O=C(O)C1(Nc2ccccc2)CCN(Cc2ccccc2)CC1` was inactive: 3.48%.
The same measure for `Cc1ccccc1NC1(C#N)CCN(Cc2ccccc2)CC1`: inactive: 3.73%.
The value for `CCN1CCC(Nc2cccc(F)c2)CC1` was inactive: 2.03%; that for `O=C(NCC1(N2CCCCC2)CCCCC1)c1ccco1` was inactive: 7.16%; that for `CC(C)(C)c1ccc(C(=O)NCC2(N3CCOCC3)CCCCC2)cc1` was inactive: 16.6%.
In the case of `CN(C)c1ccc(C(=O)NCC2(N3CCCCC3)CCCCC2)cc1`, the activity change, negative = inhibition is inactive: -10.9%.
The same measure for `Cn1c(=O)[nH]cc(N(CCCl)CCCl)c1=O`: inactive: -19.9%.
The value for `Cc1ccccc1C(=O)NCC1(N(C)C)CCCCC1` was inactive: -13.1%; that for `COc1cc(OC)cc(C(=O)NCC2(N3CCCCC3)CCCCC2)c1` was inactive: 1.25%.
The value for `CN(C)C1(CNC(=O)c2ccc(C(C)(C)C)cc2)CCCCC1` was inactive: -1.55%; that for `CC(=O)N(c1ccccc1)C1CCNCC1` was inactive: -3.41%; that for `Cc1ccc(NC2(C#N)CCN(Cc3ccccc3)CC2)cc1` was inactive: 1.03%.
On to `Cc1ccc(C(=O)NCC2(N3CCCCC3)CCCCC2)o1`, for which the activity change, negative = inhibition was inactive: 21.2%.
The value for `Fc1ccccc1NC1CCN(Cc2ccccc2)CC1` was inactive: -6.83%; that for `c1ccc(CN2CCC(Nc3ccccc3)CC2)cc1` was inactive: -18.7%.
The value for `O=C(NCC1(N2CCOCC2)CCCCC1)c1ccccc1` was inactive: 10.8%; that for `Cc1cc(N(CCCl)CCCl)ccc1C=O` was inactive: -12.6%; that for `CCCN1CCC(Nc2cc(OC)cc(OC)c2)CC1` was inactive: -13.1%.
The value for `CN(C)C1(CNC(=O)c2cccc(C#N)c2)CCCCC1` was inactive: 18.9%; that for `O=C(NCC1(N2CCOCC2)CCCCC1)c1ccc([N+](=O)[O-])cc1` was inactive: 19.3%; that for `CC(C)(C)OC(=O)N1CCC(N(C(=O)c2ccccc2)c2ccc(Cl)cc2)CC1` was inactive: -10.9%.
For `N#Cc1ccc(C(=O)NCC2(N3CCCCC3)CCCCC2)cc1`, the activity change, negative = inhibition was inactive: 9.27%.
Regarding `O=C(NCC1(N2CCOCC2)CCCCC1)c1ccccc1[N+](=O)[O-]`, the activity change, negative = inhibition is inactive: -3.01%.
The same measure for `CCOC(=O)C(CC)C1=NC(C)(C)Cc2ccccc21.O=[N+]([O-])c1cc([N+](=O)[O-])c(O)c([N+](=O)[O-])c1` (configuration not stated): inactive: 15.2%; for `N/C(=N\O)c1c(N)no[n+]1[O-]`: inactive: -15.1%; for `CCOC(=O)N1CCC(Nc2ccc(C)cc2)CC1`: inactive: -5.74%.
On to `CCc1cc(C(=O)NCC2(N3CCCCC3)CCCCC2)sc1C`, for which the activity change, negative = inhibition was inactive: 2.89%.
The value for `O=C(OC1CN2CCC1CC2)C1c2ccccc2C=Cc2ccccc21` (configuration not stated) was inactive: -15.8%; that for `O=C(O)c1cccc(Nc2c([N+](=O)[O-])cc([N+](=O)[O-])cc2[N+](=O)[O-])c1` was inactive: -25%; that for `O=C(NCC1(N2CCOCC2)CCCCC1)c1cc(Br)ccc1Cl` was inactive: 0.463%.
The same measure for `COc1cc(C(=O)NCC2(N3CCOCC3)CCCCC2)cc(OC)c1C`: inactive: 15.8%; for `COc1ccc(C(=O)NCC2(N3CCOCC3)CCCCC2)cc1OC`: inactive: 22.9%; for `CN1CCC(Nc2cccc(F)c2)CC1`: inactive: -11.2%.
The same measure for `COc1ccc2c(c1O)-c1c(O)c(OC)cc3c1[C@H](C2)[N+](C)(C)CC3.O=[N+]([O-])c1cc([N+](=O)[O-])c([O-])c([N+](=O)[O-])c1[O-]`: inactive: -4.49%.
`O=C(NCC1(N2CCCCC2)CCCCC1)c1cncc(Br)c1`: the activity change, negative = inhibition is inactive: 6.07%.
The value for `O=C(OC1CN2CCC1CC2)c1ccc([N+](=O)[O-])cc1` (configuration not stated) was inactive: 6.39%; that for `CCCCOc1ccccc1C(=O)NCC1(N2CCOCC2)CCCCC1` was inactive: 5.84%; that for `O=C(NCC1(N2CCOCC2)CCCCC1)c1ccccc1Br` was inactive: 13.5%.
